Experimental findings from paper PMC5648829 (Scientific Reports, 2017) are described below.

Protein sequences, listed by entry. Tags and fused reporters are not part of them.
UniProt P09960, whole entry: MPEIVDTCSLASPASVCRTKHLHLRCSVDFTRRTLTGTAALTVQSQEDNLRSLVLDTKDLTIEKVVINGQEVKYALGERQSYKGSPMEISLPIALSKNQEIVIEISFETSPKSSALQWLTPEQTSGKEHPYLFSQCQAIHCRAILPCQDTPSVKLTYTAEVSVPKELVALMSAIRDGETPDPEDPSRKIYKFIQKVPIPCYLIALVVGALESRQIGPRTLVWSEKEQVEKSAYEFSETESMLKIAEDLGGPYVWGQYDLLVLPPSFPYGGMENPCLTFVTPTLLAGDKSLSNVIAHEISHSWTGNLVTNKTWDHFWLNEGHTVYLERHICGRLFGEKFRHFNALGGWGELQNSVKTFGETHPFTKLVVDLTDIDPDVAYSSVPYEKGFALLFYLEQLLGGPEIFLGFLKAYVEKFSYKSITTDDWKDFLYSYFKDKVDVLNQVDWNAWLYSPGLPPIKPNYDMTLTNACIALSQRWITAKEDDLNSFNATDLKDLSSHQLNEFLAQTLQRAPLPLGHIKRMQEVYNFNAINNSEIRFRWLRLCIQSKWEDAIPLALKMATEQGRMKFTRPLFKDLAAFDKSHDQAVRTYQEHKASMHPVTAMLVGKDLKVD

A word on the IC50: it is the point on the concentration scale where inhibition reaches its midpoint.

Common to all, as to type: biochemical
In assay [1] the target is T1, LTA4H (Homo sapiens, UniProt P09960). In words: LTA4H aminopeptidase assay with surrogate substrate Pro-AMC. Conditions: read-out: IC50 Pro-AMC.
In assay [2] the target is T1, LTA4H. In words: LTA4H aminopeptidase assay with surrogate substrate Arg-AMC. Conditions: read-out: IC50 Arg-AMC.
Assay [3] has as its target T1, LTA4H. In words: PGP peptidolysis assay by LC-MS/MS. The settings on record: for IC50: read-out: IC50 PGP.
Assay [4] deals with T1, LTA4H. Kind of assay: LTA4H aminopeptidase assay with surrogate substrate Ala-AMC. Conditions: for Effect on Ala-AMC hydrolysis: Table 1, whether compound increased or inhibited hydrolysis of Ala-AMC by the enzyme.
Where [5] appears, read: Table 1, average of minimum two biological replicates.

SMILES strings stand for the structures. Bounds are passed on as bounds.

With `c1ccc(Oc2ccc(-c3cnco3)cc2)cc1`, the IC50 at LTA4H [1] (Table 1) came to 5.43 µM; on LTA4H [2] (setting [5]) it was 13 µM; on LTA4H [3] (Table 1), 3.53 µM. The “Ratio IC50 PGP/Arg-AMC” value at LTA4H [3] (Table 1) is 0.27. Further, the “Effect on Ala-AMC hydrolysis” value at LTA4H [4] is reported as “increase”.
For `Nc1ccc(Cc2ccccc2)cn1`, the IC50 at LTA4H [1] (Table 1) came to 5.89 µM; on LTA4H [2] (setting [5]), 6.89 µM; on LTA4H [3] (Table 1), 5.68 µM. Besides, at LTA4H [3] (Table 1), the “Ratio IC50 PGP/Arg-AMC” value came to 0.82. On LTA4H [4], the “Effect on Ala-AMC hydrolysis” value is listed as “increase”.
For `Nc1nc(-c2ccc(Oc3ccccc3)cc2)cs1`, the IC50 at LTA4H [1] (Table 1) turned out to be 0.116 µM; on LTA4H [2] (setting [5]), 0.092 µM; on LTA4H [3] (Table 1), 0.01 µM. In addition, the “Ratio IC50 PGP/Arg-AMC” value at LTA4H [3] (Table 1) is recorded as 0.11. The “Effect on Ala-AMC hydrolysis” value on LTA4H [4] is given as “increase”.
For `OCc1ccc(Oc2ccccc2)cc1`, the IC50 turned out to be 4.05 µM on LTA4H [1] (Table 1), 4.45 µM on LTA4H [2] (setting [5]) and 1.97 µM on LTA4H [3] (Table 1). The “Ratio IC50 PGP/Arg-AMC” value at LTA4H [3] (Table 1) was found to be 0.44. Also, the “Effect on Ala-AMC hydrolysis” value at LTA4H [4] is “increase”.
For the compound `O=Cc1ccc(Oc2nc3ncccc3s2)cc1`, the IC50 at LTA4H [1] (Table 2) was 0.047 µM; at LTA4H [2] (Table 2), 0.033 µM; at LTA4H [3] (Table 2), 0.133 µM; at LTA4H [4] (read-out: IC50 Ala-AMC, Table 2), above 25 µM.
